Values quoted from earlier work as cited in patent publication US20050143441A1, “Novel medical combination treatment of obesity involving 4,5-dihydro-1H-pyrazole derivatives having CB1-antagonistic activity” (priority 2003, published 2005).

Sequences of proteins named here, by UniProt entry; tags and fusion partners are left off.
UniProt P00591, whole entry: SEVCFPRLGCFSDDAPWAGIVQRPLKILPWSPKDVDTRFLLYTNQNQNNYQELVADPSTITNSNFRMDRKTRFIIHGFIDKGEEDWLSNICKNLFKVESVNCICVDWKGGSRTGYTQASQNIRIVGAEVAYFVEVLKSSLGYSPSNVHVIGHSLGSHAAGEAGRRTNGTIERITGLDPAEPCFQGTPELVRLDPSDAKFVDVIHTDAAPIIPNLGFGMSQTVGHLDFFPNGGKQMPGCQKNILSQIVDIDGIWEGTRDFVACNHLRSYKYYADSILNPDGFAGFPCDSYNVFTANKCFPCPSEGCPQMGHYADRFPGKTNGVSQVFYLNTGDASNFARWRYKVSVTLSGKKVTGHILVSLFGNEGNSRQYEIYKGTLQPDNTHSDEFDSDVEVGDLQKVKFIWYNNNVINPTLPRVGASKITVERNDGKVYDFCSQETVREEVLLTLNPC

Molecular target: porcine pancrease lipase (Sus scrofa, UniProt P00591)

## CCCCC/C=C\C/C=C\C[C@@H](C[C@@H]1OC(=O)[C@H]1CCCCCC)OC(=O)[C@H](CC(C)C)NC=O
  IC50 for inhibition of hydrolysis of triolein by porcine pancrease lipase: 0.07 µg/mL
